Calls of active or inactive are those of the source. No cut-off for these calls is given here.
How the values were obtained:
[1] = biological target: T1, 5-hydroxytryptamine receptor 2B (Homo sapiens, UniProt P41595); assay: Agonist activity at human 5-HT2B receptor expressed in human Flp-In-293 cells assessed as induction of calcium flux by measuring log(Emax/EC50) incubated for 1 hr by Fluo-4 direct dye based FLIPR assay; type: functional, cell-based
[2] = biological target: T2, 5-hydroxytryptamine receptor 2A (Homo sapiens, UniProt P28223); conditions: Flp-In-293, time 1.0 hrs
[3] = biological target: T1, 5-hydroxytryptamine receptor 2B; conditions: Flp-In-293, time 1.0 hrs
[4] = biological target: T2, 5-hydroxytryptamine receptor 2A; assay: Agonist activity at human 5-HT2A receptor expressed in human Flp-In-293 cells assessed as induction of calcium flux incubated for 1 hr by Fluo-4 direct dye based FLIPR assay relative to 5-HT; type: functional, cell-based
[5] = biological target: T3, 5-hydroxytryptamine receptor 2C (Homo sapiens, UniProt P28335); assay: Agonist activity at human 5-HT2C receptor expressed in human Flp-In-293 cells assessed as induction of calcium flux by measuring log (Emax/EC50) incubated for 1 hr by Fluo-4 direct dye based FLIPR assay; type: functional, cell-based
[6] = biological target: T2, 5-hydroxytryptamine receptor 2A; assay: Agonist activity at human 5-HT2A receptor expressed in human Flp-In-293 cells assessed as induction of calcium flux by measuring log(Emax/EC50) incubated for 1 hr by Fluo-4 direct dye based FLIPR assay; type: functional, cell-based
[7] = biological target: T1, 5-hydroxytryptamine receptor 2B; assay: Agonist activity at human 5-HT2B receptor expressed in human Flp-In-293 cells assessed as induction of calcium flux incubated for 1 hr by Fluo-4 direct dye based FLIPR assay relative to 5-HT; type: functional, cell-based
[8] = biological target: T3, 5-hydroxytryptamine receptor 2C; assay: Agonist activity at human 5-HT2C INI receptor expressed in human Flp-In-293 cells assessed as induction of calcium flux incubated for 1 hr by Fluo-4 direct dye based FLIPR assay relative to 5-HT; type: functional, cell-based; conditions: filed as agonist
In short: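 Calcium flux in Flp-In-293 cells stably expressing the human 5-HT2C INI isoform, Fluo-4 Direct loading for 1 h at 37 °C. Drug dilutions identical to those in the parallel Tango assay, 300 s read at 1 read/s, normalized to % 5-HT. Triplicate, mean ± SEM (n = 3). Bias factors were calculated from change in relative activity, log(Emax/EC50).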

Protein sequences, listed by entry. Tags and fused reporters are not part of them. Lines headed by an entry give the natural chain unless they say otherwise; changes in a name come on top.
UniProt P41595, whole entry: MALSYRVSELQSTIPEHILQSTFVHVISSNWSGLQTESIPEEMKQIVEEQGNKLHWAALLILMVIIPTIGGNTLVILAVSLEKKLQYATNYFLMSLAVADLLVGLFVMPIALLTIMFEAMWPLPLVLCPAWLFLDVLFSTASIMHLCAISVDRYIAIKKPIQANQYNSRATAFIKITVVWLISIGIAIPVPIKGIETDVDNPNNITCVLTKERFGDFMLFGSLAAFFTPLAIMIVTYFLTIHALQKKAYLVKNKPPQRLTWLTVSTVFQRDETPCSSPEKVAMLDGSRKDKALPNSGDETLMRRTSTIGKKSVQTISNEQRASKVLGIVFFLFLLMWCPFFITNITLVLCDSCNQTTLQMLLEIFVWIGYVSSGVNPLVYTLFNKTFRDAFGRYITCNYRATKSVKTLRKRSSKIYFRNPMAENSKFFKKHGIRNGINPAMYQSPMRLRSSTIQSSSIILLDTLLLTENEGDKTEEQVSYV
UniProt P28223, whole entry: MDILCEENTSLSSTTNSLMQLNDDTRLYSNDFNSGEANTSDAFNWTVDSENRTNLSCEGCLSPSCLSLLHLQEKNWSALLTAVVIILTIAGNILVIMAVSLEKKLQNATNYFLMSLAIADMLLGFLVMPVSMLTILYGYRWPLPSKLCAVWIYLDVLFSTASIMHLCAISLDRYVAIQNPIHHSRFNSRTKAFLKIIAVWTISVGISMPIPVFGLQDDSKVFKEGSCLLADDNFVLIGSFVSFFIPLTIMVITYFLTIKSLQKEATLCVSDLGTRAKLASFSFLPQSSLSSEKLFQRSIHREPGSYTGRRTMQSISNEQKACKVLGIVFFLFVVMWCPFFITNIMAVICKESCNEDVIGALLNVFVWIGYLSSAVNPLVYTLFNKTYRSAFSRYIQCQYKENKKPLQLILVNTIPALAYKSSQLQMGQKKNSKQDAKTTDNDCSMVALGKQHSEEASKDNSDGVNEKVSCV
UniProt P28335: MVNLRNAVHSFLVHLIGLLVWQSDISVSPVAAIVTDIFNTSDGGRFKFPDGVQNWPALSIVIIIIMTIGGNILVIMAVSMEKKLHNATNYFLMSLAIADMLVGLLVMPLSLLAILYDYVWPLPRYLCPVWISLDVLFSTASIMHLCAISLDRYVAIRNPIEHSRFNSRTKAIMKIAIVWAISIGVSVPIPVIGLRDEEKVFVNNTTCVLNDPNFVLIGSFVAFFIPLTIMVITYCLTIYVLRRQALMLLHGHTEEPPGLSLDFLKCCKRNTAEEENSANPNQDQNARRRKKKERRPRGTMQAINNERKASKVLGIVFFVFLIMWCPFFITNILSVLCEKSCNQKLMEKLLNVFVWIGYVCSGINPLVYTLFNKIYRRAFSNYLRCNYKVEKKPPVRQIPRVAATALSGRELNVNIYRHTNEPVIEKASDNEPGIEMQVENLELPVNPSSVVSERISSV

[9] = biological target: T3, 5-hydroxytryptamine receptor 2C; assay: Agonist activity at human 5-HT2C INI receptor expressed in human HEK293 cells assessed as induction of beta-arrestin-2 recruitment incubated for 20 hrs by Tango assay relative to 5HT; type: cell-based
In short: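 Tango assay in HTLA cells (HEK line expressing TEV-fused β-arrestin-2 and tTA-driven luciferase) transfected with 5-HT2C INI–tTA fusion carrying a TEV site. Cells were stimulated with the same dilutions used for FLIPR, 20 h at 37 °C and 5% CO2, then lysed with Bright-Glo for 20 min at room temperature and read by luminescence. Data normalized to % 5-HT and fitted sigmoidally; n = 3 in triplicate. Bias from log(Emax/EC50).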

[10] = biological target: T3, 5-hydroxytryptamine receptor 2C; assay: Agonist activity at human 5-HT2C receptor expressed in human Flp-In-293 cells assessed as induction of calcium flux incubated for 1 hr by Fluo-4 direct dye based FLIPR assay relative to 5-HT; type: functional, cell-based
[11] = biological target: T3, 5-hydroxytryptamine receptor 2C; conditions: Flp-In-293, time 1.0 hrs

Structure (SMILES)	log(ratio) [1]	pEC50 [2]	pEC50 [3]	Emax [4]	log(ratio) [5]	log(ratio) [6]	Emax [7]	Emax [8] [%]	Emax [9] [%]	Emax ([10]; filed as agonist) [%]	Emax ([4]; filed as agonist) [%]	pEC50 [11]	Emax [10]	Emax ([7]; filed as agonist) [%]
CCOc1ccc2oc(CC)cc2c1[C@@H]1C[C@H]1CN	inactive	inactive	inactive	inactive	6.82	inactive	inactive	–	–	–	–	–	–	–
CCCOc1ccc2c(c1[C@H]1C[C@@H]1CN)CCO2	6.08	–	–	31%	7.72	5.62	31%	–	–	–	–	–	–	–
CCOc1ccc2occc2c1[C@@H]1C[C@H]1CN	inactive	–	inactive	–	7.61	5.41	inactive	–	–	–	–	–	–	–
C=CCOc1ccc2oc(CC)cc2c1[C@H]1C[C@@H]1CN	–	inactive	–	inactive	–	–	19%	94	35	102	–	–	–	–
NC[C@H]1C[C@@H]1c1c(OCC2CC2)ccc2c1CCO2	6.09	–	–	17%	7.56	5.35	33%	–	–	–	–	–	–	–
CCc1cc2c([C@@H]3C[C@H]3CN)c(OCCF)ccc2o1	–	inactive	inactive	inactive	–	–	inactive	–	–	–	–	–	–	–
CCOc1ccc2oc(CC)cc2c1[C@H]1C[C@@H]1CN	6.07	–	–	35%	7.82	5.13	36%	–	–	–	–	–	–	–
C=CCOc1ccc2c(c1[C@@H]1C[C@H]1CN)CCO2	–	inactive	inactive	inactive	–	–	inactive	–	–	–	–	–	–	–
CCCOc1ccc2oc(CC)cc2c1[C@H]1C[C@@H]1CN	inactive	inactive	inactive	inactive	7.07	inactive	inactive	–	–	96	–	–	–	–
CCc1cc2c([C@H]3C[C@@H]3CN)c(OC)ccc2o1	6.96	–	–	–	8.57	5.88	–	–	–	–	72	–	–	55
CCCOc1ccc2c(c1[C@@H]1C[C@H]1CN)CCO2	inactive	inactive	inactive	inactive	6.99	inactive	inactive	–	–	–	–	–	–	–
C=CCOc1ccc2c(c1[C@H]1C[C@@H]1CN)CCO2	–	–	–	–	–	–	35%	–	–	–	49	–	–	–
NC[C@@H]1C[C@H]1c1c(OCCF)ccc2c1CCO2	–	–	inactive	–	–	–	inactive	–	–	–	–	–	–	–
CCc1cc2c([C@H]3C[C@@H]3CN)c(OCCF)ccc2o1	–	–	–	–	–	–	27%	–	–	–	44	–	–	–
CCCOc1ccc2oc(CC)cc2c1[C@@H]1C[C@H]1CN	inactive	inactive	inactive	inactive	inactive	inactive	inactive	–	–	–	–	inactive	inactive	–
CCOc1ccc2occc2c1[C@H]1C[C@@H]1CN	6.77	–	–	–	8.61	6.82	–	–	–	–	–	–	–	50
NC[C@@H]1C[C@H]1c1c(OCC2CC2)ccc2c1CCO2	inactive	inactive	inactive	inactive	6.36	inactive	inactive	–	–	–	–	–	–	–
CCc1cc2c([C@@H]3C[C@H]3CN)c(OCC3CC3)ccc2o1	inactive	inactive	inactive	inactive	6.19	inactive	inactive	–	–	–	–	–	–	–
CCc1cc2c([C@H]3C[C@@H]3CN)c(OCC3CC3)ccc2o1	inactive	inactive	inactive	inactive	6.86	inactive	inactive	–	–	–	–	–	–	–
NC[C@H]1C[C@@H]1c1c(OCCF)ccc2c1CCO2	–	–	inactive	–	–	–	inactive	–	–	–	–	–	–	–

The next lines start with results.

log(ratio) [1]	pEC50 [2]	pEC50 [3]	Emax [4]	log(ratio) [5]	log(ratio) [6]	Emax [7]	Emax [8] [%]	Emax [9] [%]	Emax ([10]; filed as agonist) [%]	Emax ([4]; filed as agonist) [%]	pEC50 [11]	Emax [10]	Structure (SMILES)	Emax ([7]; filed as agonist) [%]
inactive	inactive	inactive	inactive	7	inactive	inactive	–	–	–	–	–	–	CCCOc1ccc2occc2c1[C@@H]1C[C@H]1CN	–
–	inactive	inactive	inactive	–	–	inactive	–	–	–	–	–	–	C=CCOc1ccc2occc2c1[C@@H]1C[C@H]1CN	–
inactive	–	inactive	21%	7.99	5.73	inactive	–	–	–	–	–	–	CCCOc1ccc2occc2c1[C@H]1C[C@@H]1CN	–
5.7	inactive	–	inactive	6.97	inactive	–	–	–	–	–	–	–	C=C(F)COc1ccc2occc2c1[C@@H]1C[C@H]1CN	–
–	inactive	inactive	inactive	–	–	inactive	–	–	–	–	inactive	inactive	C=CCOc1ccc2oc(CC)cc2c1[C@@H]1C[C@H]1CN	–
6.47	–	–	–	8.05	6.14	–	–	–	–	49	–	–	C=C(F)COc1ccc2occc2c1[C@H]1C[C@@H]1CN	–
6.18	–	–	25%	7.92	5.74	–	–	–	–	–	–	–	NC[C@H]1C[C@@H]1c1c(OCC2CC2)ccc2occc12	–
6.43	–	–	19%	7.6	5.86	–	–	–	–	–	–	–	C=C(C)COc1ccc2occc2c1[C@H]1C[C@@H]1CN	–
inactive	inactive	inactive	inactive	6.94	inactive	inactive	–	–	–	–	–	–	CCc1cc2c([C@@H]3C[C@H]3CN)c(OC)ccc2o1	–
–	–	–	–	–	–	31%	–	–	–	46	–	–	C=CCOc1ccc2occc2c1[C@H]1C[C@@H]1CN	–
5.71	inactive	–	inactive	6.89	inactive	–	–	–	–	–	–	–	NC[C@@H]1C[C@H]1c1c(OCC2CC2)ccc2occc12	–
5.65	inactive	–	inactive	6.43	inactive	–	–	–	–	–	–	–	C=C(C)COc1ccc2occc2c1[C@@H]1C[C@H]1CN	–
